Experimental findings from ChEMBL document CHEMBL4043202, “Synthesis, pH dependent, plasma and enzymatic stability of bergenin prodrugs for potential use against rheumatoid arthritis” (Bioorg Med Chem, 2017) are described below.

Data set [1] in a line: Distribution coefficient, log D of the compound in PBS/n-octanol at pH 7.4 at 25 degC by HPLC method. As to conditions: octanol/water.
Data set [2] in a line: Partition coefficient, log P of the compound in water/n-octanol at pH 7.4 at 25 degC by HPLC method.

In the case of `COc1c(OC(=O)c2c([N+](=O)[O-])cc([N+](=O)[O-])cc2[N+](=O)[O-])cc2c(c1O)[C@@H]1O[C@H](COC(=O)c3c([N+](=O)[O-])cc([N+](=O)[O-])cc3[N+](=O)[O-])[C@@H](O)[C@H](O)[C@H]1OC2=O`, in data set [1], the logD (usually the decadic logarithm of the distribution of all forms, ionised or not, between an organic phase and buffer at a given pH) amounted to 1.8. For the same compound, the logP (usually a log measure of how a compound divides between an organic and an aqueous phase) in data set [2] came out at 2.79.
